Laboratory results taken from ChEMBL document CHEMBL1146689, “The design and synthesis of a novel quinolizidine template for potent opioid and opioid receptor-like (ORL1, NOP) receptor ligands” (2004).

Experiments:
[1] = target: Mu-type opioid receptor (Homo sapiens, UniProt P35372); assay: Binding affinity for human opioid receptor mu 1 using [3H]- DAMGO as radioligand transfected into CHO cells
[2] = target: Nociceptin receptor (Homo sapiens, UniProt P41146); assay: Binding affinity for human nociceptin (NOP) receptor using [3H]N/OFQ as radioligand transfected into CHO cells
[3] = target: Delta-type opioid receptor (Homo sapiens, UniProt P41143); assay: Binding affinity for human opioid receptor delta 1 using [3H]- CL-DPDPE as radioligand transfected into CHO cells
[4] = target: Kappa-type opioid receptor (Homo sapiens, UniProt P41145); assay: Binding affinity for human opioid receptor kappa 1 using [3H]- U-69,593 as radioligand transfected into CHO cells

SMILES | Ki [1] | Ki [2] | Ki [3] | Ki [4]
O=c1[nH]c2ccccc2n1[C@H]1CCN2[C@H](CCC[C@H]2C2CCCCC2)C1 | 119 nM | 189 nM | > 10000 nM | 227 nM
O=c1[nH]c2ccccc2n1[C@@H]1CCN2[C@H](CCC[C@H]2C2CCCCC2)C1 | 46.8 nM | 28.7 nM | 2080 nM | 2.3 nM
